Measured values from ChEMBL document CHEMBL1949595, “Fluorinated ΔF508-CFTR correctors and potentiators for PET imaging” (Bioorg Med Chem Lett, 2012).

Assay: Potentiation activity at human CFTR delta F508 mutant-mediated iodine flux expressed in rat FRT cells coexpressing fluorescent protein YFP-H148Q/1152L by fluorescence assay
Format: cell-based

Molecule `O=c1c(-c2ccc(O)cc2)coc2cc(O)cc(O)c12` [GENISTEIN] has an EC50 of 7 µM.
